Results from ChEMBL document CHEMBL5338786, “In Silico-Guided Rational Drug Design and Synthesis of Novel 4-(Thiophen-2-yl)butanamides as Potent and Selective TRPV1 Agonists” (J Med Chem, 2023).
The source made the active and inactive calls. No cut-off for these calls is given here.

The chains behind the UniProt entries cited, without tags or fusion partners.
UniProt Q9ERZ8, whole entry: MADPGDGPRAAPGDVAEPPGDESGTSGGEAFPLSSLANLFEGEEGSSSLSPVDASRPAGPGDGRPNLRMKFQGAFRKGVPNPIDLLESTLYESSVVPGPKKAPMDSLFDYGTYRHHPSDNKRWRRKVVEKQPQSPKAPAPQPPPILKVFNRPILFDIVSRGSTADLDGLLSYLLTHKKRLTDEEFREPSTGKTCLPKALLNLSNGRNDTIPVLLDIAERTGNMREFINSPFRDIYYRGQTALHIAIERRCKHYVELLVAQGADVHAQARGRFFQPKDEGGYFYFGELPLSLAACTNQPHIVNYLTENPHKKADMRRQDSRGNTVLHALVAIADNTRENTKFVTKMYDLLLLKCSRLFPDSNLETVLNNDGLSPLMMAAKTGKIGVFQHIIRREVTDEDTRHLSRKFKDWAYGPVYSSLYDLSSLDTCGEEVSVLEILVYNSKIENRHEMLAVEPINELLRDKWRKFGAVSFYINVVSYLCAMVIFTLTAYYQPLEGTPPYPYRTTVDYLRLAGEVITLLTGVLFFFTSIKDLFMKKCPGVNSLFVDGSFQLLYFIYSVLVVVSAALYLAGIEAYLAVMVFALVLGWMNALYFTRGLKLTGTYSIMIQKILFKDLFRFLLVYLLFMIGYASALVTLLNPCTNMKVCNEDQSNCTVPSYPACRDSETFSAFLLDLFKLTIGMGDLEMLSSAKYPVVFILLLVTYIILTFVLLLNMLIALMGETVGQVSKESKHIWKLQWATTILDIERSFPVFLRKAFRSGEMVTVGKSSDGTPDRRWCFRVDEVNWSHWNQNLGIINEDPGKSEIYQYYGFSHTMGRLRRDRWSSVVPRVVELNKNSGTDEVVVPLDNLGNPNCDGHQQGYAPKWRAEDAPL

molecular target: Transient receptor potential cation channel subfamily V member 4 (Rattus norvegicus) (UniProt Q9ERZ8); experiment: Agonist activity at rat recombinant TRPV4 expressed in HEK293 cells assessed as increase in intracellular calcium accumulation by Fluo4-AM based assay; type: cell-based

Structure (SMILES) | Activity
COc1cc(CNC(=O)CCCc2ccc(I)s2)ccc1O | inactive
COc1cc(CNC(=O)CCCc2ccc(-c3ccccc3)s2)ccc1O | inactive
COc1cc(CNC(=O)CCCc2ccc(-c3cccnc3)s2)ccc1O | inactive
